Results: PubChem BioAssay AID807 (SRMLSC, 2007)
This is a selection; strong and weak results do not stand in their true shares. Calls of active or inactive are those of the source.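 The calls were made as follows: active = viability increase at or above a cutoff of the median across tested compounds plus 3 SD (cut at about 8.5% in these data, passing the limit was not always enough); inconclusive = some gains above the cutoff, reason not given; inactive = the rest.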

Assay: viability gain of MRP-1-high H69AR cells under doxorubicin, pilot screen, MRP-1 activator project, CellTiter-Glo, duplicate (AID 807);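 also: compound pretreatment 18-22 h then 72 h combined with doxorubicin; 0% = doxorubicin alone and 100% = vehicle without doxorubicin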
Settings: H69AR viability with doxorubicin, CellTiter-Glo luminescence; at 10 µM; stronger effect = higher value

With `Fc1ccccc1NC1CCN(Cc2ccccc2)CC1` as the compound, how does the viability increase read?
The viability increase was inactive: -3.64%.
